In patent US20090238768A1, “MULTIMERIC MAGNETIC RESONANCE CONTRAST AGENTS” (priority 2005, published 2009):

Experiment: longitudinal relaxivity rl in human blood plasma at 37° C.
Format: physicochemical
Protocol: Compound 23 was dissolved in human blood plasma and the longitudinal relaxivity rl was measured at 37° C. at the following fields:
Compound 7 was dissolved in human blood plasma and the longitudinal relaxivity rl was measured at 37° C. at the following fields:
Compound 13 was dissolved in human blood plasma and the longitudinal relaxivity rl was measured at 37° C. at the following fields:
Compound 36 was dissolved in human blood plasma and the longitudinal relaxivity rl was measured at 37° C. at the following fields:
Compound 40 was dissolved in human blood plasma and the longitudinal relaxivity rl was measured at 37° C. at the following fields:
Compound 43 was dissolved in human blood plasma and the longitudinal relaxivity rl was measured at 37° C. at the following fields:
Compound 46 was dissolved in human blood plasma and the longitudinal relaxivity rl was measured at 37° C. at the following fields: […]

## gadolinium derivative of 1,3,5-Tris-(N-(DO3A-acetamido)-N-methyl-4-amino-2-methyl-phenyl)-benzene [Compound 7]
0.47 T
  longitudinal relaxivity rl: 10.6 mM^1s^1
1.41 T
  longitudinal relaxivity rl: 9.4 mM^1s^1
3 T, calculated from the measurements at lower fields
  longitudinal relaxivity rl calculated for a field of 3 T: 9 mM^1s^1
